This passage reports Cytotoxicity results from paper PMC10716148 (Scientific Reports, 2023).

This data set deals with B16F10 melanoma cells. The experiment in a line: Cytotoxicity assay (MTT) in B16F10 cells. It counts as cell-based, Murine. Particulars: 72 h. As to the method: Murine melanoma B16F10 cells (obtained from DS Pharma Biomedical, Japan) were cultivated in Dulbecco's Modified Eagle Medium (DMEM), a liquid medium supplemented with 10% fetal bovine serum (FBS) and 1% penicillin/streptomycin. The cells were incubated at a temperature of 37 °C within a controlled humidified environment containing 5% CO2. To facilitate subculture, the cells were detached from the culture flask using trypsin solution. Subsequently, the cells were subjected to staining with trypan blue solution and quantified using a hemocytometer for further analysis. The final concentration of DMSO was 0.1% for all experiments.
Cytotoxicity was assessed through the utilization of the MTT assay. The cell culture was initiated in 24-well plates, with a seeding density of 5 × 10^4 cells per well. After treatment with samples for 72 h, 10 µL of MTT solution (5 mg/mL in PBS) were added to each well and incubated for additional 3 h. Then, supernatant was removed and DMSO (250 µL) was added to dissolve the formed formazan crystals. The absorbance was measured at 570 nm using a microplate reader. Cells treated solely with DMSO served as the control. All experiments were conducted in triplicate. The percentage of cell viability was determined using the following calculation: %Cellviability=Abstreated cells-Absblank of treated cells/Abscontrol-Absblank of control×100

A value given as a limit tells only on which side of the number the result lay.

Quercetin-3-O-rhamnoside [Compound 1] yielded a Cytotoxicity greater than 200 µM.
